## Ab-91 heavy chain CDR variants: yeast mating affinities

Source: Engelhart et al. 2022 (doi:10.1038/s41597-022-01779-4), MIT Lincoln Laboratory and A-Alpha Bio; data file from the FLAb repository.

The target is the same throughout: PDVDLGDISGINAS, from the HR2 region of SARS-CoV-2 spike.

Each scFv is VL, a 15-residue (Gly4Ser)3 linker, VH, as in the parent Ab-91, and differs from it in the CDRs of the heavy chain only.
VL: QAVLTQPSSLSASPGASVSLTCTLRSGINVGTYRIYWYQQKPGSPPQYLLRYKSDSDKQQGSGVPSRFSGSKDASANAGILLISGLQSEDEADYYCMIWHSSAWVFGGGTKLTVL
VH: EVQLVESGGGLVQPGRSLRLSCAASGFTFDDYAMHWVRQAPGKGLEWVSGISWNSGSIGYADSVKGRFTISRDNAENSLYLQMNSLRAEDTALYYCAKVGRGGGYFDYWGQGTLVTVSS

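The parent was found by panning a naive human phage display library on the peptide. The library (AAYL51) carries one to three amino acid substitutions per variant, with no insertions or deletions. The assay is AlphaSeq: two haploid yeast populations carry antibody and antigen on their surface. After mating in shaken culture at 30 °C for 16 h, diploids were selected and their barcode pairs sequenced. Read counts were normalised to the haploid input and turned into Kd by a linear fit to BCL2-family pairs of known affinity, for each replicate. The assay was run in three technical replicates.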

Changes read parent residue, position, new residue, counted from the first residue of the VH shown. Scale: log10 of Kd in nM, estimated from mating counts; low values are strong binders. A mean of the replicates is given; it leaves out those without a signal. An entry "no signal" has no value in the source: the pair was not observed among the diploids in any replicate. This suggests poor binding but is not conclusive. Background: pairings of library AAYL51 with three empty control strains gave a value in 21% of cases (median 4.54, 5th percentile 3.26). Values in that range, when seen in few replicates, are hard to tell from nonspecific mating.

{"changes": "M34L/A61V/V99E", "mean, log10 nM": "5.02", "seen in": "3/3"}
{"changes": "S52E/I58L/F106Q", "mean, log10 nM": "no signal", "seen in": "0/3"}
{"changes": "H35E/G103F/Y108K", "mean, log10 nM": "no signal", "seen in": "0/3"}
{"changes": "G26V/A61V/S63H", "mean, log10 nM": "no signal", "seen in": "0/3"}
{"changes": "F27C/H35E/D62K", "mean, log10 nM": "3.84", "seen in": "1/3"}
{"changes": "D30S/I58K/G100Q", "mean, log10 nM": "no signal", "seen in": "0/3"}
{"changes": "G50R/G59D/A61L", "mean, log10 nM": "4.35", "seen in": "2/3"}
{"changes": "T28G/N54L/Y60D", "mean, log10 nM": "5.09", "seen in": "2/3"}
{"changes": "F27C/D31I/H35P", "mean, log10 nM": "4.66", "seen in": "2/3"}
{"changes": "G50M/G100S/F106N", "mean, log10 nM": "5.57", "seen in": "2/3"}
{"changes": "F29V/V99I/D107S", "mean, log10 nM": "5.22", "seen in": "2/3"}
{"changes": "F27Y/S55A/G56Q", "mean, log10 nM": "3.15", "seen in": "3/3"}
{"changes": "F27W/D31I/G102P", "mean, log10 nM": "no signal", "seen in": "0/3"}
{"changes": "G26H/R101V/G102E", "mean, log10 nM": "no signal", "seen in": "0/3"}
{"changes": "I51R/G102Q/Y105T", "mean, log10 nM": "5.13", "seen in": "2/3"}
{"changes": "S52L/F106K", "mean, log10 nM": "4.44", "seen in": "1/3"}
{"changes": "Y32N/Y108E", "mean, log10 nM": "no signal", "seen in": "0/3"}
{"changes": "S55H/V99I/Y108W", "mean, log10 nM": "2.13", "seen in": "3/3"}
{"changes": "S57G/A61Y/G100F", "mean, log10 nM": "4.57", "seen in": "1/3"}
{"changes": "G100Q/G104C", "mean, log10 nM": "no signal", "seen in": "0/3"}